Results: ChEMBL document CHEMBL4219021, “Discovery of a Small-Molecule Degrader of Bromodomain and Extra-Terminal (BET) Proteins with Picomolar Cellular Potencies and Capable of Achieving Tumor Regression” (J Med Chem, 2018)

The chains behind the UniProt entries cited, without tags or fusion partners.
UniProt P25440, whole entry: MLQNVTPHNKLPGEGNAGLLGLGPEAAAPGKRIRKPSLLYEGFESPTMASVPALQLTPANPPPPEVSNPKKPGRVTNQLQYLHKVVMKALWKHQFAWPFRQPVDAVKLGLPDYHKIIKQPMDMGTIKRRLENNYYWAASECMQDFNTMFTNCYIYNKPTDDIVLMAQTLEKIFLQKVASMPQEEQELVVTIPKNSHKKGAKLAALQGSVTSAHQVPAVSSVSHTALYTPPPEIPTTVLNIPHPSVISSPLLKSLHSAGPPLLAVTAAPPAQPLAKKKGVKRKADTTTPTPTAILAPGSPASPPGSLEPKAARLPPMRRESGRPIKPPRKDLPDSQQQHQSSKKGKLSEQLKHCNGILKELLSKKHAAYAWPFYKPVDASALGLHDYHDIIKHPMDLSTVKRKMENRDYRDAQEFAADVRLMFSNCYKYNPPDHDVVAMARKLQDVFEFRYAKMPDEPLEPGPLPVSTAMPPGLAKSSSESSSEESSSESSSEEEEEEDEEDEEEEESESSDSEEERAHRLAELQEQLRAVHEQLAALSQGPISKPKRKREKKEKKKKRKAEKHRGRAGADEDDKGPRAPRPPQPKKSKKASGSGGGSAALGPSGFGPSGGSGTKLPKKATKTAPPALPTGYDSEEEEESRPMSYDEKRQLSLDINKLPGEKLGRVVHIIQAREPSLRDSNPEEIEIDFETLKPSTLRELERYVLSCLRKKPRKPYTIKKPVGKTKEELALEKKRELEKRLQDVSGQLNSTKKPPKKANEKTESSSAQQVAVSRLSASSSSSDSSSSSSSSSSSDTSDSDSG

Key:
[1] = biological target: T1, Bromodomain-containing protein 2 (Homo sapiens, UniProt P25440); assay: Inhibition of FAM-labeled ZBA248 binding to recombinant N-terminal His6-tagged BRD2 bromodomain 2 (349 to 460 residues) (unknown origin) expressed in Escherichia coli Rosetta2 DE3 after 30 mins by fluorescence polarization assay
[2] = biological target: T1, Bromodomain-containing protein 2; assay: Inhibition of FAM-labeled ZBA248 binding to recombinant N-terminal His6-tagged BRD2 bromodomain 1 (72 to 205 residues) (unknown origin) expressed in Escherichia coli Rosetta2 DE3 after 30 mins by fluorescence polarization assay

`Cc1sc2c(c1C)C(c1ccc(Cl)cc1)=N[C@@H](CC(=O)Nc1ccc(O)cc1)c1nnc(C)n1-2` [BIRABRESIB] was tested, and the IC50 [1] was 24.8 nM and the IC50 [2] was 33.3 nM.
